Test results taken from patent publication US12115147B2, “Formulations and methods related to eye irritation” (Lebrun Labs LLC, priority 2020, dated 2024).

Columns and labels:
rabbit eye = settings: Table 7A; based on the Draize data; cited from earlier work
[1] = Table 7A; consensus of past transferability study, no antioxidants; predicted GHS class; cited from earlier work
[2] = OS2 (OPTISAFE2), OPTISAFE formulation with antioxidants; settings: Table 7A

Substance: Ammonium nitrate
- In vivo GHS (rabbit eye): Cat 2A
- OS Cons [1]: 2
- OS2 Cons ([2]; majority prediction of the triplicate assays): 2
- 0S2 R1 ([2]; repeat 1, with antioxidants, predicted GHS class): 2
- OS2 R3 ([2]; repeat 3, with antioxidants, predicted GHS class): 2

Some compounds may have been tested in ways that are not shown here.
